Measurements as given in patent US20250059204A1, “FUSED BENZOISOXAZOLYL COMPOUNDS AS KAT6A INHIBITORS” (Aurigene Oncology Limited, priority 2021, published 2025).

Amino acid sequences for entries named in this document (tags omitted). Residues count along the entry.
UniProt Q92794, 507-778 limits assumed: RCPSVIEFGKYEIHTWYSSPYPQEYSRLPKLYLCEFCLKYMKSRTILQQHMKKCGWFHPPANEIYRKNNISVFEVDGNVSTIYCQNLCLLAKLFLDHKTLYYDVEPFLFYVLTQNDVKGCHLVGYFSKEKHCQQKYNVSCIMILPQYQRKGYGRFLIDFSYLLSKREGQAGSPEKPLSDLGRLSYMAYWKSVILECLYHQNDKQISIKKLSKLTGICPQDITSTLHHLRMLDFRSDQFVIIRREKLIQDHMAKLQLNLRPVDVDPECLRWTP

Biological target: human-KAT6A (MYST domain 507-778 aa) (Homo sapiens (Human), UniProt Q92794)
Test: KAT6A biochemical assay (TR-FRET)
Details: read-out: KAT6A IC50, H4 peptide 200 nM, acetyl-CoA 600 nM

## COc1ccccc1S(=O)(=O)Nc1noc2cc(Cn3cncn3)c3c(c12)OCC3
  IC50: 61 nM
